Experimental data: patent US11857632B1, “Nanocellulose as an embedding matrix and applications thereof” (dated 2024)

Chains of the proteins cited; added tags and fusions are not shown. Lines headed by an entry give the natural chain unless they say otherwise; changes in a name come on top. Residues count along the entry.
UniProt P21836, 32-614 limits assumed: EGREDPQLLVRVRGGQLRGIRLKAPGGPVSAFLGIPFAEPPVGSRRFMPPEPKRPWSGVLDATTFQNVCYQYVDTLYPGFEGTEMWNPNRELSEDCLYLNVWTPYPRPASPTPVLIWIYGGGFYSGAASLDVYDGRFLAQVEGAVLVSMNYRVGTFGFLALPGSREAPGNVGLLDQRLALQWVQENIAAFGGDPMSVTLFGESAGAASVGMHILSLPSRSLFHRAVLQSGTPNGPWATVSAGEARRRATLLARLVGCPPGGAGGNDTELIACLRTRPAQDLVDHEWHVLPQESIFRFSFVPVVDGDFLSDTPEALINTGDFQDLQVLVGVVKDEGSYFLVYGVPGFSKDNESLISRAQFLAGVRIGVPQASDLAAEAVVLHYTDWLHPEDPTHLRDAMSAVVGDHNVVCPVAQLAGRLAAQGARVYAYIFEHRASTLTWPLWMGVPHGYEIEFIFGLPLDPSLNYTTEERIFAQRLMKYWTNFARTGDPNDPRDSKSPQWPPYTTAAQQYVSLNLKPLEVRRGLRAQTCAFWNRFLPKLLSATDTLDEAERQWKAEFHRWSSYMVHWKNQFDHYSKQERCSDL
UniProt P22303: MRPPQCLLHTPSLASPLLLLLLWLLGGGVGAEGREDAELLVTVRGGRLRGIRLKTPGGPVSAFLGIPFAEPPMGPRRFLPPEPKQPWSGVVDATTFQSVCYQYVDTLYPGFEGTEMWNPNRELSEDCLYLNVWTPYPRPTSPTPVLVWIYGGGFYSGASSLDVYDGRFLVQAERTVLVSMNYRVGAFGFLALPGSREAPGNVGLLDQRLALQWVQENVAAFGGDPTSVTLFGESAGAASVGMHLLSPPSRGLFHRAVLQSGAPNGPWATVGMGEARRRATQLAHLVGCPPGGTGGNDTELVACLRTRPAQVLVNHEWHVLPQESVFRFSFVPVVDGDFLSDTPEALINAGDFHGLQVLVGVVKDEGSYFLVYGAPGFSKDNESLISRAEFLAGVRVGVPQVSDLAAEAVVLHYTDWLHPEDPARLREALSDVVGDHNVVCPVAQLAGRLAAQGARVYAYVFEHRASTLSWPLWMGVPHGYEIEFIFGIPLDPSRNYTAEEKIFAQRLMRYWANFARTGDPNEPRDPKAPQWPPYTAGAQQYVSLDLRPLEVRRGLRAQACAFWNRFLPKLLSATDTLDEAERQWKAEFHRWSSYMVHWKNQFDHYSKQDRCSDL

What was measured:
[1] = molecular target: mouse blood AChE (Mus musculus, UniProt P21836); experiment: Radiometric AChE assay, in-vitro inhibition by free PB and CNC-PB; settings: all time-points
[2] = system: male CD1 mice
[3] = molecular target: red blood cell cholinesterase (i.e., AChE) (Homo sapiens, UniProt P22303); settings: humans, one 30 mg tablet every 8 hours; cited from earlier work

For `CN(C)C(=O)Oc1ccc[n+](C)c1`, the “AChE activity compared to PBS” value [1] was “lower”, the functional toxicity score ([2]; 20 mg/kg, 45 min and 2-hour time-points) was 3 and the “functional signs of toxicity” value ([2]; 20 mg/kg, by 2.5 hours after dosing) was “no obvious functional signs”. The functional toxicity score ([2]; 39.5 mg/kg, around 30 minutes after dosing) was 3, the “functional toxicity score (peak)” value ([2]; 39.5 mg/kg, at 3-4 hours) was 4 and the time of death ([2]; 39.5 mg/kg, one mouse) was 270 min. For the same compound, the time of death ([2]; 51.3 mg/kg, one mouse) was “about 50 minutes”, the toxicity outcome ([2]; 112.7 mg/kg, one mouse) was “severe signs and death within one minute” and the “MTD (maximum tolerated, non-lethal dose)” value ([2]; mice, gavage, observed to 24 hours) was 20 mg/kg. The “inhibition of red blood cell cholinesterase” value [3] was 20-40%.

Read-outs that look alike come from different tables or passages of the source.
